Here are results for 3 molecules from patent US11396531B2, “Antimicrobial peptides comprising epsilon lysine residues” (priority 2016, dated 2022).

Values after ≈ are worked out from the molar mass of the structure shown. Read-outs that look alike come from different tables or passages of the source.

One data set concerns A. baumannii. The following applies: A. baumannii (n = 10), Table 5; for MIC90: 90% of strains susceptible; for MIC: range. How it is done: (§1) MIC of cationic polymers and polypeptide were tested in accordance with the Clinical and Laboratory Standards Institute (CLSI) guidelines against a panel of antibiotic-susceptible/-resistant bacteria, yeasts and fungal strains. Bacterial and yeast strains were cultured on tryptic soy agar (TSA) and Sabaroud dextrose agar (SDA) plates (Neogen Corporation, MI, USA) overnight respectively. Inocula in Mueller-Hinton broth (MHB) for bacteria and SD broth for C. albicans (Beckton Dickinson, MD, USA) were prepared at 0.5 McFarland. The suspensions were then diluted to a final concentration of 10^5 CFU/ml in a 96-well microtitre plate (SPL Life Sciences Co., Ltd, Korea). […] The antimicrobial activities were compared with topical antiseptic agents, BAK and CHX. A similar protocol was used to determine the MIC of εPL against antibiotic-resistant pathogens. MIC of the polymers and polypeptides against Fusarium strains was determined in full strength RPMI-1640 buffer. Fungal spores were recovered from a 5-day old culture on a potato dextrose agar and diluted to a concentration of 10^5 spores/ml in 0.9% saline solution. A further 50-fold dilution was done in RPMI-1640 buffer and 100 μl of the inoculum was added to 96 well plates containing an equal volume of test peptides at 2-fold serial dilutions. 200 μl of inoculum without any additives and buffer alone served as positive and negative controls, respectively. The plate was then incubated at 30° C. for 48 h. The absorbance value was measured at 600 nm as before and the lowest concentration of the peptide which inhibited 90% growth was reported. All MIC determinations were performed in duplicates.
(§2) MICs of polymers/antibiotics were determined using the microdilution method in 96 well microtitre plates (SPL Life Sciences Co., Ltd, Korea), following the guidelines of Clinical and Laboratory Standards Institute (CLSI) document M100-S18. Briefly, polymers (1-512 μg/ml) or antibiotics were dissolved in appropriate media (Mueller Hinton broth, MHB for bacteria; Sabaroud's Dextrose (SD) broth for yeasts and RPMI buffer for Fusarium strains) and 100 μl of this was then mixed with an equal volume of microbial inoculum (OD600=˜0.08) in the same media and shaken in a closed incubator.

The next data set relates to B. cereus ATCC 11778. The following applies: B. cereus ATCC 11778, Table 5. On the procedure: as §1, §2
The subject of another data set is B. subtilis ATCC 6633. Particulars: B. subtilis ATCC 6633, Table 5. On the procedure:
as §1, §2

The test system of a further data set is C. albicans. On the procedure: as §1, §2
The subject of the next data set is C. parapsilosis. Particulars: C. parpsilosis (n = 9), Table 5. How it is done: as §1, §2
The subject of a further data set is C. tropicalis. The following applies: C. tropicalis (n = 9), Table 5. How it is done:
as §1, §2

In data set [1] the test system is Carbapenam-resistant Enterobacter strains (CRE). The following applies: CRE (n = 19 strains), Table 5; for MIC50: 50% of strains susceptible; for MIC: range. On the procedure:
as §1, §2

In another data set the test system is E. cloacae complex. How it is done: as §1, §2
A further data set concerns S. epidermidis 12228. The following applies: S. epidermidis 12228, Table 5. How it is done: as §1, §2
The subject of data set [2] is Vancomycin-resistant Enterococcus (VRE). Particulars: VRE (n = 21 strains), Table 5; for MIC90: 90% of strains susceptible; for MIC: range. How it is done:
as §1, §2

In data set [3] the test system is primary human dermal fibroblasts (HDFs). Put plainly: MTS cytotoxicity assay. The following applies: for Cytotoxicity for primary human dermal fibroblasts: Table 5. On the procedure: MTS ((3-(4,5-dimethylthiazol-2-yl)-5-(3-carboxymethoxyphenyl)-2-(4-sulfophenyl)-2H-tetrazolium)) assay and high content analysis (HCA) were performed to elucidate the effect of various polymers on metabolic activity and morphological parameters of cultured human dermal fibroblasts (hDF), respectively as described previously. The antineoplastic agent, nocodazole (5 μg/ml), served as the […] control whereas cells treated with PBS served as positive control. The average values from three independent triplicate experiments are reported. Cells were cultured in 96-well plates and scanned (16 randomly selected fields/well) using an automated microscope IN Cell Analyzer 2200 (GE Healthcare). The multi-parametric cytotoxicity bio-application module of the IN Cell Investigator software (GE Healthcare) was used in quantitative estimations and morphotypic analysis of acquired images, which were automatically converted into color-coded heatmaps using Spotrfire® software.
Human dermal fibroblast cells were seeded in 96-well plates (2×10^3 cells/well) and incubated for 24 h at 37° C. and 5% CO2. Cells were then treated with various concentrations of polymers or peptides (62.5 μg/ml-1 mg/ml. At the end of the treatment period (after 24 h), 20 or 50 μl of MTS tetrazolium solution was added into 96-well or 12-well plates and further incubated for 2 h at 37° C. Subsequently, the absorbance was measured at 490 nm using a microplate reader (Infinite M200 Pro, Tecan, Switzerland) and the relative cell viability was calculated. Each treatment was performed in two triplicates and reported.
The cytotoxicity of peptides and polymers were determined using CellTier 96® Aqueous One solution cell proliferation assay kit according to the manufacturer's instruction (Promega Corporation, Madison, Wis.). This assay evaluates mitochondrial function by measuring ability of viable cells to reduce MTS ((3-(4,5-dimethylthiazol-2-yl)-5-(3-carboxymethoxyphenyl)-2-(4-sulfophenyl)-2H-tetrazolium)) into a quantifiable […] formazan product. HDFs were seeded in 96-well plates (2×10^3 cells/well) and incubated for 24 h at 37° C. and 5% CO2. Cells were then treated with a concentrated stock solution of polymers (final concentration 62.5-2000 μg/ml in the well) or peptides (final concentration 4-1000 μg/ml in the well). After 24 h, 20 μl of MTS tetrazolium solution was added into 96-well well plates and further incubated for 2 h at 37° C. Subsequently, the absorbance was measured at 490 nm using a microplate reader (Infinite M200 Pro, Tecan, Switzerland) and the relative cell viability was calculated relative to untreated control (10 mM PBS, pH 7.0). Each treatment was performed in two triplicates and reported.
(Tetrazolium assays rely on reduction of a dye to a coloured formazan, in cell work by metabolically active cells.)

The next data set concerns VRE 1002. Put plainly: SYTOX green (SG) uptake assay and bacterial viability. The data set is classed as cell-based, Enterococcus. The following applies: 1× and 2×MIC. On the procedure:
To discern the pore-forming ability of modified peptide in comparison with melittin, the SYTOX green (SG) uptake assay was performed upon exposure of the peptides and their bactericidal properties were determined. […] Therefore the fluorescence intensity is taken to be proportional to the degree of cell membrane disruption caused by test peptides.

The next data set relates to P. aeruginosa. The data set is classed as cell-based, Pseudomonas aeruginosa. Particulars: Table 4, range over 5 strains. How it is done: as §1, with “Korea). Polymers and polypeptides were added to the inoculum in 2-fold serial dilutions to give a range of concentrations from 2-1024 μg/ml.” for “Korea).”
as §2

A further data set relates to S. aureus or MRSA. The data set is classed as cell-based, Staphylococcus aureus. The following applies: Table 4, range over 5 strains. On the procedure: as §1, with “Korea). Polymers and polypeptides were added to the inoculum in 2-fold serial dilutions to give a range of concentrations from 2-1024 μg/ml.” for “Korea).”
as §2

Data set [4] is described as follows: Calcein dye leakage from mammalian model LUVs. Particulars: peptide:lipid ratio 0.0625. On the procedure:
To obtain an insight into the mechanism of membrane discrimination, large unilamellar vesicles (LUVs) which mimic the cytoplasmic membrane of mammalian (PC/Cholesterol) and microbial (PE:PG) cells were used. […] More dramatic results were observed when the experiments were carried out on PC/Cholesterol LUVs.

The mark [5] stands for this setting: E. cloacae complex 6780, Table 5.
The mark [6] stands for this setting: E. cloacae complex 44095, Table 5.

In general, MIC refers to the smallest concentration in the dilution series that meets the test's criterion for growth inhibition. The low end stands for a more susceptible organism, the high end for a less susceptible organism. For `CC[C@H](C)[C@H](NC(=O)CN)C(=O)NCC(=O)N[C@@H](C)C(=O)N[C@H](C(=O)N[C@@H](CC(C)C)C(=O)NCCCC[C@H](N)C(=O)N[C@H](C(=O)N[C@@H](CC(C)C)C(=O)N[C@H](C(=O)N[C@H](C(=O)NCC(=O)N[C@@H](CC(C)C)C(=O)N1CCC[C@H]1C(=O)N[C@@H](C)C(=O)N[C@@H](CC(C)C)C(=O)N[C@H](C(=O)N[C@@H](CO)C(=O)N[C@@H](Cc1c[nH]c2ccccc12)C(=O)N[C@H](C(=O)N[C@@H](CCCCN)C(=O)N[C@@H](CCCNC(=N)N)C(=O)NCCCC[C@H](N)C(=O)N[C@@H](CCCNC(=N)N)C(=O)N[C@@H](CCC(N)=O)C(=O)N[C@@H](CCC(N)=O)C(N)=O)[C@@H](C)CC)[C@@H](C)CC)[C@@H](C)O)[C@@H](C)O)C(C)C)C(C)C` [Peptide 6], the MIC90 result (against A. baumannii; in [2]) was “(MIC90 = 8) μg/ml” in each case. The MIC is 4 to 8 µg/mL in the data set with A. baumannii; 8 µg/mL (≈ 2.81 µM) with B. cereus ATCC 11778; 16 µg/mL (≈ 5.62 µM) in the data set on B. subtilis ATCC 6633; 16 to 32 µg/mL against C. albicans (C. albicans (n = 5), Table 5); 8 to 64 µg/mL against C. parapsilosis; 2 to 32 µg/mL against C. tropicalis. For the same molecule, the MIC in [1] was 4 to 128 µg/mL; with E. cloacae complex (setting [5]) it was 16 µg/mL (≈ 5.62 µM); with E. cloacae complex (setting [6]), 8 µg/mL (≈ 2.81 µM); in the data set on S. epidermidis 12228, 8 µg/mL (≈ 2.81 µM); in [2], 4 to 16 µg/mL. For the same molecule, in [1], the MIC50 entry is given as “(MIC50 = 16) μg/ml”. Moreover, the “Cytotoxicity for primary human dermal fibroblasts” value in data set [3] amounted to 1000 µg/mL. Besides, in the data set on VRE 1002, the “SG uptake compared with melittin” value is reported as “decreased SG uptake”.
Take `CC[C@H](C)[C@H](NC(=O)CN)C(=O)NCC(=O)N[C@@H](C)C(=O)N[C@H](C(=O)N[C@@H](CC(C)C)C(=O)NCCCC[C@H](N)C(=O)N[C@H](C(=O)N[C@@H](CC(C)C)C(=O)N[C@H](C(=O)N[C@H](C(=O)NCC(=O)N[C@@H](CC(C)C)C(=O)N1CCC[C@H]1C(=O)N[C@@H](C)C(=O)N[C@@H](CC(C)C)C(=O)N[C@H](C(=O)N[C@@H](CO)C(=O)N[C@@H](Cc1c[nH]c2ccccc12)C(=O)N[C@H](C(=O)NCCCC[C@H](N)C(=O)N[C@@H](CCCNC(=N)N)C(=O)N[C@@H](CCCCN)C(=O)N[C@@H](CCCNC(=N)N)C(=O)N[C@@H](CCC(N)=O)C(=O)N[C@@H](CCC(N)=O)C(N)=O)[C@@H](C)CC)[C@@H](C)CC)[C@@H](C)O)[C@@H](C)O)C(C)C)C(C)C` [Peptide 5]: the MIC90 entry against A. baumannii is reported as “(MIC90 = 4) μg/ml”; in data set [2] it was “(MIC90 = 8) μg/ml”. Moreover, the minimal inhibitory concentration (MIC) in the data set with A. baumannii is 2 to 4 µg/mL; against B. cereus ATCC 11778, 32 µg/mL (≈ 11.2 µM); in the data set with B. subtilis ATCC 6633, 16 µg/mL (≈ 5.62 µM); in [1] it was 4 to 64 µg/mL; against E. cloacae complex (setting [5]), 8 µg/mL (≈ 2.81 µM); against E. cloacae complex (setting [6]), 8 µg/mL (≈ 2.81 µM). Also, the MIC in the data set on S. epidermidis 12228 was 16 µg/mL (≈ 5.62 µM); in data set [2] it was 4 to 16 µg/mL. The MIC50 result in data set [1] was “(MIC50 = 8) μg/ml”. In [3], the “Cytotoxicity for primary human dermal fibroblasts” value stood at 1000 µg/mL. In addition, the “SG uptake compared with melittin” value in the data set on VRE 1002 is “decreased SG uptake”.
As for `CC[C@H](C)[C@H](NC(=O)CN)C(=O)NCC(=O)N[C@@H](C)C(=O)N[C@H](C(=O)N[C@@H](CC(C)C)C(=O)N[C@@H](CCCCN)C(=O)N[C@H](C(=O)N[C@@H](CC(C)C)C(=O)N[C@H](C(=O)N[C@H](C(=O)NCC(=O)N[C@@H](CC(C)C)C(=O)N1CCC[C@H]1C(=O)N[C@@H](C)C(=O)N[C@@H](CC(C)C)C(=O)N[C@H](C(=O)N[C@@H](CO)C(=O)N[C@@H](Cc1c[nH]c2ccccc12)C(=O)N[C@H](C(=O)NCCCC[C@H](N)C(=O)N[C@@H](CCCNC(=N)N)C(=O)N[C@@H](CCCCN)C(=O)N[C@@H](CCCNC(=N)N)C(=O)N[C@@H](CCC(N)=O)C(=O)N[C@@H](CCC(N)=O)C(N)=O)[C@@H](C)CC)[C@@H](C)CC)[C@@H](C)O)[C@@H](C)O)C(C)C)C(C)C` [Peptide 2], in the data set with P. aeruginosa, the “MIC against P. aeruginosa (n = 5)” value was 4 to 16 µg/mL. Moreover, in the data set on C. albicans (Table 4, range over 5 strains), the “MIC against C. albicans (n = 5)” value fell in the range of 4 to 8 µg/mL. For the same molecule, the “MIC against S. aureus or MRSA (n = 5)” value against S. aureus or MRSA fell in the range of 4 to 8 µg/mL. Besides, the “Cytotoxicity (in μg/ml) for HDFs” value in data set [3] (Concentration at which complete cytotoxicity was observed in MTS and HCA) stood at 32 µg/mL. Besides, the “dye leakage from PC/Cholesterol LUVs” value in [4] is reported as approximately 70%.
